## Measured affinities in a library of Ab-91 heavy chain variants

Antigen: PDVDLGDISGINAS, a 14-residue peptide of the SARS-CoV-2 spike HR2 region.

Ab-91 is the parent antibody, in scFv form: VL, then a 15-residue (Gly4Ser)3 linker, then VH. The light chain is unchanged in all variants.
VL: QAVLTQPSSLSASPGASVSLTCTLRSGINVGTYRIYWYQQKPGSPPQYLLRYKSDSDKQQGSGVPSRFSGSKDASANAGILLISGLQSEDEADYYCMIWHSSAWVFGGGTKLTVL
VH: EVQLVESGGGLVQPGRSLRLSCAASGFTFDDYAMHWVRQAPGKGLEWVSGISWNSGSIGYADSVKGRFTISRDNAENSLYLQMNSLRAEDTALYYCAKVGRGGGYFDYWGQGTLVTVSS

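In library AAYL51, one, two or three CDR residues were substituted; doubles and triples were drawn at random. The assay is AlphaSeq: two haploid yeast populations carry antibody and antigen on their surface. Mating (16 h, 30 °C) was followed by selection of diploids and sequencing of their barcodes. Read counts were normalised to the haploid input and turned into Kd by a linear fit to BCL2-family pairs of known affinity, for each replicate. The assay was run in three technical replicates.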

The parent's heavy chain CDRs are GFTFDDYAMH, GISWNSGSIGYADSVK, VGRGGGYFDY; each variant's own CDRs replace them letter for letter. The read-out is the apparent dissociation constant on a log10 scale (nM): the lower, the stronger. A pair that was not seen in that replicate is written "n.d."; this usually means weak binding, but a binder can also be missed.

CDR-H1	CDR-H2	CDR-H3	log10 Kd, replicates	control signals
GFLFDDYAMH	GISWNSGSIGYADSVK	VGRGGGYFDY	6.26 / n.d. / n.d.	2 of 9 (4.86)
GQMFDDYAMH	GISWNSGSIGYADSVP	VGRGGGYFDY	4.01 / 5.59 / n.d.	2 of 9 (3.56)
GFTFDDYAMH	GISWNSGSIGYADSVK	VQRGGCYFDY	n.d. / n.d. / n.d.	0 of 9
GFTFDDYAMH	NIVWNSGSIGYADSVK	VGRGGGYFDY	n.d. / 5.28 / n.d.	1 of 9 (3.64)
GFTFDDVAMH	GKSWNSGSIGYADSVK	VGRGGGYFDY	n.d. / 4.24 / n.d.	1 of 9 (1.63)
GFYFDDYAMH	GLSTNSGSIGYADSVK	VGRGGGYFDY	n.d. / n.d. / n.d.	3 of 9 (3.88)
GFTFDDYAMH	GISWNSTSDGYADSVK	VGRGYGYFDY	n.d. / n.d. / n.d.	1 of 9 (4.12)
GCWFDDYAMH	GISWNSGSIGYADAVK	VGRGGGYFDY	n.d. / n.d. / n.d.	1 of 9 (3.97)
GFTFDDYAMH	GISWNGGKIGYADSVK	VGRGGGYWDY	n.d. / n.d. / 4.47	2 of 9 (4.36)
GFTFDDYAMH	GISWNSGSWGYATSVK	VGRGGGYFDY	n.d. / 4.00 / n.d.	0 of 9
GFTFYDYAMH	GIKWNSGSIGFADSVK	VGRGGGYFDY	4.51 / 4.70 / 5.50	4 of 9 (4.96)
GFTFDDYAMH	GISWNGGSIGYADSVK	VGRGGGYFCY	3.06 / 3.05 / 3.00	3 of 9 (4.65)
GFTFDDYAMH	GISSNSGSIGRADTVK	VGRGGGYFDY	4.73 / 6.34 / n.d.	4 of 9 (5.02)
GFTFDDYAMM	GISWNSGSIGYADSVK	VGRGFGYFDY	3.67 / n.d. / n.d.	2 of 9 (5.79)
GSTFDDYAMH	GISWNSGSIMYADSVK	VGLGGGYFDY	4.57 / 4.29 / 5.43	8 of 9 (5.04)
GFTFDDWAMH	GISWNSGSIGYADSVK	HGRGGGSFDY	n.d. / n.d. / 4.67	2 of 9 (5.12)
GVTFDDYAMH	GISWNSRSIGYADSVI	VGRGGGYFDY	n.d. / 5.21 / 5.12	1 of 9 (4.65)
SFTFDDYAAH	GISWNSGSIGYADRVK	VGRGGGYFDY	n.d. / n.d. / n.d.	1 of 9 (3.43)
KFMFDDYAMH	GISWNSGSIGYADSVK	VGRGGGTFDY	6.01 / n.d. / n.d.	2 of 9 (5.38)
GMTFDDYDMH	GISWNSGSIGYADSVK	VGFGGGYFDY	4.64 / n.d. / n.d.	3 of 9 (5.12)
GFTFDDYAMH	GISRNSGSIGYADSVK	VYRGGGYFDY	n.d. / n.d. / 4.19	1 of 9 (5.24)
GFTFDPYAMH	GISWNSGSIIYIDSVK	VGRGGGYFDY	n.d. / n.d. / n.d.	2 of 9 (3.98)
GFTFDDYAMH	GIVWNSGSIGYADSVK	VGQWGGYFDY	5.76 / 3.83 / n.d.	5 of 9 (4.37)
GFTFDDYAMH	GISKFSGSIGYADSVK	VGAGGGYFDY	n.d. / n.d. / 1.97	0 of 9
GFTFDDYAMH	GIRWNSMSIGYADSVK	VGRGGGYFDY	n.d. / 4.14 / n.d.	2 of 9 (4.19)
GFQFDGYAMH	GISWNSGSIGYAWSVK	VGRGGGYFDY	2.57 / 2.68 / 2.90	3 of 9 (4.03)
GFTFDDYAMH	GISWNSGSFGYADSVK	VGRAGGYFDY	2.79 / 2.47 / 2.23	1 of 9 (5.28)
GFTFDDYAMH	GIRWNSGIIGYADSVK	VGNGGGYFDY	n.d. / n.d. / n.d.	0 of 9
GFTFGDQAMH	GISWNSGSIGYGDSVK	VGRGGGYFDY	1.17 / 1.14 / 0.64	4 of 9 (4.91)
GFTFDDYAMH	GISWNSGSIGYADSVQ	VMRGGGYFDY	n.d. / n.d. / n.d.	2 of 9 (4.11)
GFTFDDYAMH	GISWNSGSIGYADSLK	VGSGGGYFDI	1.46 / 1.39 / 0.90	0 of 9
GFTFDDYYPH	GISWNSGSIGIADSVK	VGRGGGYFDY	5.06 / 4.64 / 4.37	2 of 9 (4.63)
GFTFDDYAMI	GISWNSRSIGYADSVK	VIRGGGYFDY	4.88 / n.d. / n.d.	3 of 9 (4.84)
GFTFDDYAMH	GISWNSGSIGYALSVQ	VGRAGGYFDY	2.29 / 2.26 / 2.15	4 of 9 (4.73)
GFHFDDYAMH	GISWNSGSIGYADSVF	VGRGRGYFDY	n.d. / n.d. / n.d.	0 of 9
GFTFDAYAMH	GISWNSGSIGYADSFK	VGRGGGYFDY	1.69 / 1.64 / 0.80	1 of 9 (4.76)
GYEFDDYAMH	GISWNSGSIGYPDSVK	VGRGGGYFDY	n.d. / n.d. / 4.99	1 of 9 (4.20)

As a blank, each scFv also met three strains without target: over library AAYL51, 21% of these pairings were detected, typically at 4.54 and seldom below 3.26. Also given: how often the same scFv was detected with the empty control strains, with their mean in brackets. In this assay the parent's reference entry averaged 1.86; its copy inside this library read 0.88.

The measurements come from Engelhart et al. 2022 (doi:10.1038/s41597-022-01779-4) through the FLAb antibody collection.